Reference: patent US10294236B2, “Compounds as rearranged during transfection (RET) inhibitors” (GLAXOSMITHKLINE INTELLECTUAL PROPERTY DEVELOPMENT LIMITED, priority 2014, dated 2019)

Chains of the proteins cited; added tags and fusions are not shown. Residues count along the entry.
UniProt P07949, 658-1114 limits assumed: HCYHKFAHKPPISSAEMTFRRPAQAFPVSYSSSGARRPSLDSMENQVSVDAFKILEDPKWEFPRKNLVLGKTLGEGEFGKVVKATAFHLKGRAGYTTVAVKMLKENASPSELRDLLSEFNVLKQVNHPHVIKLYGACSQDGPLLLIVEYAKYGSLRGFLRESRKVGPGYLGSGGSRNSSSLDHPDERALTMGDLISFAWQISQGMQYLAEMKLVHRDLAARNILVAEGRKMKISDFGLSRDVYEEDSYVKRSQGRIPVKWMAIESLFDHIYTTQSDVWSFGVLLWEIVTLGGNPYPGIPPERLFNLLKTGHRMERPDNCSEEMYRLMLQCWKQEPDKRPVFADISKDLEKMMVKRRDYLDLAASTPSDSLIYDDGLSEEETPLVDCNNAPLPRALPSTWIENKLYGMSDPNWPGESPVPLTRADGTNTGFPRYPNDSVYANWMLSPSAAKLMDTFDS

Molecular target: Human RET kinase cytoplasmic domain (Homo sapiens, UniProt P07949)
Test: RET kinase enzymatic assay
Conditions: read-out: RET IC50

IC50: < 100 nM
SMILES: CCOc1cc(-c2ccc(NC(=O)Nc3ccc(CC4(C)COC4)c(C(F)(F)F)c3)c(F)c2)c[nH]c1=O
